{
  "source": "patent US8734776B2",
  "about": "(ZymoGenetics, Inc., priority 2003, dated 2014)",
  "tested_on": "EMCV",
  "experiment": "EMCV antiviral dye-uptake assay in HepG2 cells",
  "type": "cell-based, human",
  "settings": "dye-uptake OD570",
  "data": [
    {"substance": "IFN-β: interferon-β [reference compound]", "values": [
      {"measurement": "EC50 antiviral activity", "value": 0.46, "unit": "ng/mL"}
    ]}
  ]
}
